From patent US5372813A (priority 1992, dated 1994)

Tested on: 5-HT reuptake complex
Test: in vivo blocking of 5-125I-6-NQP brain binding by co-injected drugs
Parameters: species or system rat
Conditions: in words; for radioactivity in prefrontal cortex, olfactory tubercles, hippocampus and hypothalamus / radioactivity in the cerebellum: co-injection 2 mg/kg, 6 h
[1] = co-injection 2 mg/kg paroxetine

| SMILES | radioactivity in prefrontal cortex, olfactory tubercles, hippocampus and hypothalamus | radioactivity in the cerebellum | radioactivity concentrations in brain regions (co-injection, LSD 0.5 mg/kg, GBR-12909 and DMI 2 mg/kg) | blocked brain tissue radioactivity concentrations and unblocked cerebellum (co-injection 2 mg/kg paroxetine, 4 h post injection) | cerebellar radioactivity [1] | prefrontal cortex and hypothalamus radioactivity [1] | total binding of 5-125I-6-NQP in all rat brain regions measured [1] |
| --- | --- | --- | --- | --- | --- | --- | --- |
| CNCCC(Oc1ccc(C(F)(F)F)cc1)c1ccccc1 (racemic) [fluoxetine, (±)-N--Methyl-3-Phenyl-3-[(ααα-trifluoro-p-tolyl)oxy]propylamine] | greatly reduced radioactivity | only a small change in radioactivity in the cerebellum |  |  |  |  |  |
| CNCCCN1c2ccccc2CCc2ccccc21 [DMI] |  |  | little effect on radioactivity concentrations in these regions |  |  |  |  |
| Fc1ccc([C@@H]2CCNC[C@H]2COc2ccc3c(c2)OCO3)cc1 [paroxetine] | greatly reduced radioactivity | only a small change in radioactivity in the cerebellum |  | approximately equal at 4 h post injection | decreased only slightly | greatly diminished | decrease in total binding in all rat brain regions measured |
